Measurements from patent US4379165A, “Anti-convulsant” (priority 1981, dated 1983).

Key:
[1] = system: maximal electroshock seizures; assay: maximal electroshock seizure (MES) pattern test, rats; settings: rats (Table 7; title of Table 5 prints Mice); oral
[2] = system: subcutaneous bicuculline seizure threshold; assay: subcutaneous Bicuculline Seizure Threshold Test (sc Bic); settings: mice; intraperitoneal
[3] = system: subcutaneous picrotoxin seizure threshold; settings: mice; intraperitoneal
[4] = system: subcutaneous metrazol seizure threshold; assay: subcutaneous Metrazol Seizure Threshold Test (sc Met), mice

Structure (SMILES): O=C1NC(=O)C(c2ccccc2)(c2ccccc2)N1 [Phenytoin]
- PI (TD50/ED50) MES [1]: > 100
- PI (TD50/ED50) Bicuculline [2]: < 0.65
- PI (TD50/ED50) Picrotoxin [3]: < 0.65
- PI (TD50/ED50) sc Met ([4]; intraperitoneal): < 0.22
- PI (TD50/ED50) sc Met ([4]; oral): < 0.29
